Several values for one entry are separate records, joined by “and”; a condition that tells them apart may be missing. Identical values can stand only once. Like-named read-outs stand apart in the source and are kept apart here.
Conditions: for AKG Day 1 (blood, individual rats): beginning of the experiment, baseline
Text: The aim of this experiment was to study the relationship between the blood level of AKG and survival of elderly rats. Forty Sprague-Dawley rats randomly chosen (2-3 years old) from the Department of Cell & Organisms Biology in Lund University were used in the experiment. The rats were divided into four groups, 10 rats each, two control groups and two experiment groups. […] The mixtures were titrated with 0.01 M NaOH to correct the pH.
Blood samples were taken at the beginning of the experiment from all rats and blood AKG levels were estimated. Experimental time was 8 weeks and parameters as AKG blood levels and survival were monitored.

Structure (SMILES): O=C([O-])CCC(=O)C(=O)[O-].[Na+].[Na+] [Na2AKG * 2H2O, sodium alpha-ketoglutarate]
- AKG Day 1 (blood, individual rats) (Experiment Group I (2.28 g)): 0.15 µg/mL and 0.23 µg/mL
- AKG Day 56 (blood, individual rats) (Experiment Group I (2.28 g), end of the experiment): 0.9 µg/mL
- AKG Day 1 (blood, individual rats) (Experiment Group II (22.8 g)): <0.1 µg/mL and 0.34 µg/mL
